Assay results reported in PubChem BioAssay (Tox21).
The source calls these results inconclusive, neither active nor inactive. Unless noted, calls follow the shape of the dose curve; as a rule, active = well fitted curve in the direction sought with a large enough effect in the repeat runs; inconclusive = weak or mixed curves; inactive = no such curve, though single readings can be large; an effect the other way counts as inactive or inconclusive.

Protein sequences, listed by entry. Tags and fused reporters are not part of them. Lines headed by an entry give the natural chain unless they say otherwise; changes in a name come on top.
UniProt P04150: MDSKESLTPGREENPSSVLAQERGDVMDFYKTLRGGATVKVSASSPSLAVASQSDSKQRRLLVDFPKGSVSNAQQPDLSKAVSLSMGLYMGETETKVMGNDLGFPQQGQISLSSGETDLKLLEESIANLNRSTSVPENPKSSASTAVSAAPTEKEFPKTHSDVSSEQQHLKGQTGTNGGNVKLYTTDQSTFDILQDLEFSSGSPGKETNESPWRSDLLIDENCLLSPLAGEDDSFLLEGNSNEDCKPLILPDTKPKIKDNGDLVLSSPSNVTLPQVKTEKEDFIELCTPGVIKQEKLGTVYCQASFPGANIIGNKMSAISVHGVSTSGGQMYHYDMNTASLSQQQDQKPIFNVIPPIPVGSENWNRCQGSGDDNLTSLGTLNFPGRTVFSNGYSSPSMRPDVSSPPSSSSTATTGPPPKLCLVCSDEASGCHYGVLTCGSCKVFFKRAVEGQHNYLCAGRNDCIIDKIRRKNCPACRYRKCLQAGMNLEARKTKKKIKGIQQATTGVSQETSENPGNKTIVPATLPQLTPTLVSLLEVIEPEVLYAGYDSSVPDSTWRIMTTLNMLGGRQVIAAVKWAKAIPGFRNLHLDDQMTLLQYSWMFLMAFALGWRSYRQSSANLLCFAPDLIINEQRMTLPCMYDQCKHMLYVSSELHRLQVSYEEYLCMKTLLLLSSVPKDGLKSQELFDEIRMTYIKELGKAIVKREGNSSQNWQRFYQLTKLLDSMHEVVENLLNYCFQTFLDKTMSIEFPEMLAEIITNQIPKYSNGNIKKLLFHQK
UniProt P11473: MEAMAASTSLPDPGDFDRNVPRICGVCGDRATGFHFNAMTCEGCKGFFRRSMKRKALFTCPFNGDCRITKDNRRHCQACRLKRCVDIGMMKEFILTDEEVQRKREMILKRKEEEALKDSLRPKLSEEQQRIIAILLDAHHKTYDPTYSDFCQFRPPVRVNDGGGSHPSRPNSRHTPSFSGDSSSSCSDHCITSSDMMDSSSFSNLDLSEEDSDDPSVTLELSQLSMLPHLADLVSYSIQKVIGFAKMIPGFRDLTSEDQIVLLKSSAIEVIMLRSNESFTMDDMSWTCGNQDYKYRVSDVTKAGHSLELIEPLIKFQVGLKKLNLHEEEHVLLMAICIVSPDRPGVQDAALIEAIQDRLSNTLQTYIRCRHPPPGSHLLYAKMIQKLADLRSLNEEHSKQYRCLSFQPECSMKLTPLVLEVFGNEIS
UniProt P16473, whole entry, looked up: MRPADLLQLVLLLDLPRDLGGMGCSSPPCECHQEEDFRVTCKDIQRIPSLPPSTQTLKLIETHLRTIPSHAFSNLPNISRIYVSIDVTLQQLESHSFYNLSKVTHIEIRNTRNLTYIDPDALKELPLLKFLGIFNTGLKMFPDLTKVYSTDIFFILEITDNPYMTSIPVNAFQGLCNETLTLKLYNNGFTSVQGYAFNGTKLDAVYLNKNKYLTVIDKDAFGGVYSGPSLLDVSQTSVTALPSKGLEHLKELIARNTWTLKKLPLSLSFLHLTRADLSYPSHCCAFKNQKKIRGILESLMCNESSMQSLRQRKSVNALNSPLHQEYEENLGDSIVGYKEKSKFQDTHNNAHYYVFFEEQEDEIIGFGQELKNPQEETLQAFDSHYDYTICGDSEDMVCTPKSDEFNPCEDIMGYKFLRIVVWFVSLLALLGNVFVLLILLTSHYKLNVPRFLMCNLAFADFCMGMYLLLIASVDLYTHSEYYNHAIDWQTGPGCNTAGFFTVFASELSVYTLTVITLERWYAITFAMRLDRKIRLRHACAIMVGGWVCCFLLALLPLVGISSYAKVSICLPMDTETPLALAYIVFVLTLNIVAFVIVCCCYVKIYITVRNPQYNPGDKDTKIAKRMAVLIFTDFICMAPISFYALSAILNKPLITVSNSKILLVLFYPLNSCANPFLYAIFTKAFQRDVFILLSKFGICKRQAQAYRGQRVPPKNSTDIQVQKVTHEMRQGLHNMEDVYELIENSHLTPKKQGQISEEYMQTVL
UniProt P06401: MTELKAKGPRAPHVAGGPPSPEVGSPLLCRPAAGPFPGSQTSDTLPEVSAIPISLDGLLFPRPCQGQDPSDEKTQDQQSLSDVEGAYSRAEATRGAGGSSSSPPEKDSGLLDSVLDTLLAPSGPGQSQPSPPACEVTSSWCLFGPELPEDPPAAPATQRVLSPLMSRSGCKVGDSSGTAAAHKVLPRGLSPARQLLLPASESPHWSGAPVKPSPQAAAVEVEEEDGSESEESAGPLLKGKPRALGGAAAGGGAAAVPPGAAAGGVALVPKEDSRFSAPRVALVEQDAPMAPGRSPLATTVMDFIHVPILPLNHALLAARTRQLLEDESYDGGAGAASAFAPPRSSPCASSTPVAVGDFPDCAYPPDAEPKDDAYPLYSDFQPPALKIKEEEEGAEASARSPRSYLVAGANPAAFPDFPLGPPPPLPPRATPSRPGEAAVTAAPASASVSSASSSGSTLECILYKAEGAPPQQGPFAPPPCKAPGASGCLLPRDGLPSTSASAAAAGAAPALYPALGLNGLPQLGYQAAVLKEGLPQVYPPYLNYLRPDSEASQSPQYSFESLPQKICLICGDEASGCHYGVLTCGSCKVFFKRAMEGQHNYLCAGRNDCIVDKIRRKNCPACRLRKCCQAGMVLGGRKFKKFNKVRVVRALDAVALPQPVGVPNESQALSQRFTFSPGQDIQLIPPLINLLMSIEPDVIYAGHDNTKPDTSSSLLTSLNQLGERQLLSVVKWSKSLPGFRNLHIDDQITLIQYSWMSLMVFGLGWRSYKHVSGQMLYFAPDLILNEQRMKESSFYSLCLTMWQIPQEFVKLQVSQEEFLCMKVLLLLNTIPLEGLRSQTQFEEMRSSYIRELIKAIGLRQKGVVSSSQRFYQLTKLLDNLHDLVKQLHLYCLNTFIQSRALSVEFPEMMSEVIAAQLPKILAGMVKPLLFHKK
UniProt Q14994: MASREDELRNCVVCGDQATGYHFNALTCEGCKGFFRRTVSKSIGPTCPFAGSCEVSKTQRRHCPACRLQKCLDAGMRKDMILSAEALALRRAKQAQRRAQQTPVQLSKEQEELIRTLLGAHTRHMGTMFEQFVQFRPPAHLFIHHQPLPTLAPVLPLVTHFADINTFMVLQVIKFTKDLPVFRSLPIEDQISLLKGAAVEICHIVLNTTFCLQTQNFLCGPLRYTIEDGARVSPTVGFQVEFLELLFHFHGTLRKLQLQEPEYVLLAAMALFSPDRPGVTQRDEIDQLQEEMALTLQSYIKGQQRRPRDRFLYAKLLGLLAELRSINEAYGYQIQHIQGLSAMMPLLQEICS
UniProt P03372, whole entry, looked up: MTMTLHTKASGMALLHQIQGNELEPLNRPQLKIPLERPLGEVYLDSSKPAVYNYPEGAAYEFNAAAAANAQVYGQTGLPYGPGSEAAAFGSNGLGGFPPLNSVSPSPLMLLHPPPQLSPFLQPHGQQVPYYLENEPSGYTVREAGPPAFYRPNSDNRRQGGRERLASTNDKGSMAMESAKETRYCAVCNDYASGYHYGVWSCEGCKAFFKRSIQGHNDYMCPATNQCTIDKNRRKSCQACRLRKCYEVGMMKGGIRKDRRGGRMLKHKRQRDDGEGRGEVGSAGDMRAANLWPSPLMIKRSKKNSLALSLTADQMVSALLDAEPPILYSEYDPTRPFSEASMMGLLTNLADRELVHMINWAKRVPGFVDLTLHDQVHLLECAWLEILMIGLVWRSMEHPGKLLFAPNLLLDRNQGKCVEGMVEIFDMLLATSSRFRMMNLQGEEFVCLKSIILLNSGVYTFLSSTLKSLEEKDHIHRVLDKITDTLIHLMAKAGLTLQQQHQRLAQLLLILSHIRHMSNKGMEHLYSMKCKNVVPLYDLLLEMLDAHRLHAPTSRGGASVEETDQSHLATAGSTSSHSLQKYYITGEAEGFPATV
UniProt Q92731, whole entry, looked up: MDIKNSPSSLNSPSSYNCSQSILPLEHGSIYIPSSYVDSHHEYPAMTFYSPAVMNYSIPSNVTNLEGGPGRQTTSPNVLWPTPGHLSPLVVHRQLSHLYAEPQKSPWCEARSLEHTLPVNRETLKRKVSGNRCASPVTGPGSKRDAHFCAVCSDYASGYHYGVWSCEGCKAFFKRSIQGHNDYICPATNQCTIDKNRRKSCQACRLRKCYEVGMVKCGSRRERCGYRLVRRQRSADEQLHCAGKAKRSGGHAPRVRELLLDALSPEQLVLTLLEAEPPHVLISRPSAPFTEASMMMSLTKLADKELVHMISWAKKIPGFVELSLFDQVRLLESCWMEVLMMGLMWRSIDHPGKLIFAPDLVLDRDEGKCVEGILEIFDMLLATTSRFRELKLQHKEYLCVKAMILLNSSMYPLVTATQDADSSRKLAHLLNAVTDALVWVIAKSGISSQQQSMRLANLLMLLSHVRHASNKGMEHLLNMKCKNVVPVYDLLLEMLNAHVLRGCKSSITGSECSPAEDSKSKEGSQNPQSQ
UniProt P22303: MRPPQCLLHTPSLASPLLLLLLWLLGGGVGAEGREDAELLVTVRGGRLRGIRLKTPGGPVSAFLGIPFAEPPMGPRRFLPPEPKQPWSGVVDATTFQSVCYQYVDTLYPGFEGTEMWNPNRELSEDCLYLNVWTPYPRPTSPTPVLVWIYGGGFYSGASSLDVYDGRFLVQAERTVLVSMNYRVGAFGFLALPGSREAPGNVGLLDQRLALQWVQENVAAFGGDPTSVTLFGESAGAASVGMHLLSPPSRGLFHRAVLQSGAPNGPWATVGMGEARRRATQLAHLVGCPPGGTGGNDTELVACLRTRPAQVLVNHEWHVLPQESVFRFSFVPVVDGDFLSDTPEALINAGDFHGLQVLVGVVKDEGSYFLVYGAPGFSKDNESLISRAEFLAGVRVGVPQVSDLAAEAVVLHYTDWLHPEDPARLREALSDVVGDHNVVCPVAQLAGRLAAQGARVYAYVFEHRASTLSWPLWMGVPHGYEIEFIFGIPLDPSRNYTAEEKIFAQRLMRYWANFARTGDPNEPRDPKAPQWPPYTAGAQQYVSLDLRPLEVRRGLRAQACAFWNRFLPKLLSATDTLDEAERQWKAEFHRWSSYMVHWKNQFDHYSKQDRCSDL
UniProt P05177, whole entry, looked up: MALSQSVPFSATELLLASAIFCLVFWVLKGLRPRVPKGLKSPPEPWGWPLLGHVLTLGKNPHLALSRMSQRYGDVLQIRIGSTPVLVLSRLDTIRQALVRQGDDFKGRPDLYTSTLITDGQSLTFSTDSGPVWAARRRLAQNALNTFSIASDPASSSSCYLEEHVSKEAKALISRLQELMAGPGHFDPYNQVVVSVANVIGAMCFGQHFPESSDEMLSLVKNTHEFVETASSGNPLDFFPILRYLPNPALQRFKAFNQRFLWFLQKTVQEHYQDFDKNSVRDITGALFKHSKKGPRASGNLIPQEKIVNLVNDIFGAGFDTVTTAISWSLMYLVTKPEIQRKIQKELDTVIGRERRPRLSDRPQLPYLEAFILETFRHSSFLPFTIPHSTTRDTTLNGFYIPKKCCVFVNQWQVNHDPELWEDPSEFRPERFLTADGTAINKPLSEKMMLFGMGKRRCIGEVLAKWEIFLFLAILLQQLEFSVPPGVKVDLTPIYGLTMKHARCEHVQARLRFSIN

Legend:
[1] = biological target: Glucocorticoid receptor (Homo sapiens) (UniProt P04150); experiment: qHTS assay to identify small molecule antagonists of the glucocorticoid receptor (GR) signaling pathway (AID 720692; active = well fitted inhibition curve with a large enough effect in the signal ratio in the repeat runs, not every such curve was filed as active; inconclusive = weak or mixed curves, or effect the other way; inactive = no such curve, though single readings can be large or run the other way; the % refers to the signal ratio; also: % is scaled to controls: 0 for no effect and ±100 for the full control effect); details: GR-bla HeLa, beta-lactamase FRET ratio, dexamethasone-stimulated, 18 h; activity change, negative = inhibition: at 58.5 µM (top of the series)
[2] = system: thyroid hormone receptor (rat, GH3 cells); experiment: qHTS assay to identify small molecule agonists of the thyroid receptor (TR) signaling pathway (AID 743066; calls by dose curve; also: % is scaled to controls: 0 for no effect and ±100 for the full control effect); details: GH3.TRE-Luc cells, TR agonist luciferase, 24 h; activation: at 83.9 µM (top of the series)
[3] = biological target: Vitamin D3 receptor (Homo sapiens) (UniProt P11473); experiment: qHTS assay to identify small molecule antagonists of the vitamin D receptor (VDR) signaling pathway (AID 743223; active = well fitted inhibition curve with a large enough effect in the signal ratio in the repeat runs, not every such curve was filed as active; inconclusive = weak or mixed curves, or effect the other way; inactive = no such curve, though single readings can be large or run the other way; the % refers to the signal ratio; also: % is scaled to controls: 0 for no effect and ±100 for the full control effect); details: VDR-UAS-bla HEK293T, beta-lactamase FRET ratio, 16 h; activity change, negative = inhibition: at 61 µM (top of the series)
Method in brief: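 Antagonist mode: compound added to VDR-bla cells alongside agonist 1alpha,25-dihydroxyvitamin D3 (3 nM final), incubation 16 h at 37C. Read-out is LiveBLAzer FRET fluorescence, 2 h at room temperature.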

[4] = qHTS assay to identify small molecule agonists of the RXR signaling pathway - cell viability counter screen (AID 1159529); details: RXR-alpha-bla HEK293T viability, CellTiter-Glo, 16 h; also: potency is read from the fitted curve at half-maximal effect; nearly all actives have a fitted effect of over 50% in size
Method in brief: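 CellTiter-Glo luminescence gave viability in the wells also read for beta-lactamase. Cells (RXR-alpha-UAS-bla HEK 293T, 2% charcoal-stripped FBS medium) had 5 hr plating, then 16 hr compound exposure at 37 C; tetraoctyl ammonium bromide served as positive control.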

[5] = biological target: Thyrotropin receptor (Homo sapiens) (UniProt P16473); experiment: qHTS assay to identify small molecule agonists of the thyroid stimulating hormone receptor (TSHR) signaling pathway (AID 1224843; calls by dose curve; also: % is scaled to controls: 0 for no effect and ±100 for the full control effect; nearly all actives have a fitted effect of over 45% in size); details: TSHR-HEK293 cells, cAMP HTRF, agonist mode, 30 min; activation: at 92.4 µM (top of the series)
[6] = qHTS assay to identify small molecule agonists of H2AX - cell viability counter screen (AID 1224847; calls by dose curve; also: potency is read from the fitted curve at half-maximal effect; nearly all actives have a fitted effect of over 30% in size); details: CHO-K1 viability, CellTiter-Glo luminescence, 3 h
Method in brief: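 Counter-screen for viability: CellTiter-Glo ATP luminescence read after 3 h compound treatment (15-point titration, 0.76% DMSO final) of CHO-K1 cells at 37C, with 30 min room-temperature reagent incubation.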

[7] = qHTS RealTime-Glo MT Cell Viability Assay in HepG2 cells - 0 hour (AID 1224889); details: RealTime-Glo luminescence; also: potency is read from the fitted curve at half-maximal effect; nearly all actives have a fitted effect of over 50% in size
Method in brief: (§1)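 Luminescence read-out: viable HepG2 cells reduce a prosubstrate to a NanoLuc substrate, giving a signal proportional to live cell number. Reads taken at 0, 8, 16, 24, 32 and 40 h of compound exposure at 37 C.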

[8] = qHTS assay to identify small molecule agonists of the estrogen receptor beta (ER-beta) signaling pathway - cell viability counter screen (AID 1259380); details: ER-beta-bla HEK293T viability, CellTiter-Glo luminescence, 16 h; also: potency is read from the fitted curve at half-maximal effect; nearly all actives have a fitted effect of over 30% in size
Method in brief: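 CellTiter-Glo read, 30 min RT, same wells as bla assay; cells ER-beta-UAS-bla HEK293T; 16 hr compound, 37C; medium 2% charcoal-stripped FBS.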

[9] = biological target: Progesterone receptor (Homo sapiens) (UniProt P06401); experiment: qHTS assay to identify small molecule agonists of the progesterone receptor (PR) signaling pathway (AID 1346784; calls by dose curve; also: % is scaled to controls: 0 for no effect and ±100 for the full control effect; nearly all actives have a fitted effect of over 30% in size); details: PR-UAS-bla HEK293T, beta-lactamase FRET ratio, 16 h; activation: at 92.4 µM (top of the series)
Method in brief: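 Agonist qHTS: compounds pinned onto 3,000 PR-UAS-bla HEK 293T cells per well in charcoal-stripped serum medium, 16hr at 37C, then beta-lactamase activity measured by LiveBLAzer FRET fluorescence after 2 hours at room temperature.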

[10] = qHTS assay to identify small molecule antagonists of the progesterone receptor (PR) signaling pathway - cell viability counter screen (AID 1346798); details: PR-UAS-bla HEK293T viability, CellTiter-Glo luminescence, 16 h; also: potency is read from the fitted curve at half-maximal effect; nearly all actives have a fitted effect of over 50% in size
Method in brief: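 Cytotoxicity read as CellTiter-Glo luminescence (30 min, room temperature) in the same wells as the beta-lactamase readout. HEK293T PR-UAS-bla cells in charcoal-stripped 2% FBS received compound and R5020, then 16 h at 37C, 5% CO2.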

[11] = qHTS assay to identify small molecule agonists of the progesterone receptor (PR) signaling pathway - cell viability counter screen (AID 1346799; calls by dose curve; also: potency is read from the fitted curve at half-maximal effect; nearly all actives have a fitted effect of over 45% in size); details: PR-UAS-bla HEK293T viability, CellTiter-Glo luminescence, 16 h
Method in brief: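 Cytotoxicity measured by CellTiter-Glo luminescence (30 min, RT) in the same wells as the PR beta-lactamase agonist read. Those HEK293T cells had 16 h compound treatment at 37 C in 2% charcoal-stripped FBS medium.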

[12] = Caspase-3/7 induction in HepG2 cells by small molecules, qHTS cell viability counter screen (AID 1346981); details: CellTiter-Fluor fluorescence, 17 h; also: potency is read from the fitted curve at half-maximal effect; nearly all actives have a fitted effect of over 30% in size
Method in brief: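 Viability determined by CellTiter-Fluor fluorescence in HepG2 wells also used for the luminescent Caspase-Glo 3/7 read. Compounds were present for 16 hr at 37 C, 5% CO2 before reagent addition.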

[13] = qHTS assay to identify small molecule agonists of the AP-1 signaling pathway (AID 1159526; calls by dose curve; also: potency is read from the fitted curve at half-maximal effect); details: ME-180 (cervical carcinoma) AP-1-bla reporter, beta-lactamase FRET ratio, 5 h; activation: at 76.8 µM (top of the series)
[14] = biological target: Nuclear receptor subfamily 1 group I member 3 (Homo sapiens) (UniProt Q14994); experiment: qHTS assay to identify small molecule antagonists of the constitutive androstane receptor (CAR) signaling pathway (AID 1224838); details: HepG2-CYP2B6-hCAR luciferase, CITCO-stimulated, 24 h;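 also: HepG2 cells stably expressing hCAR with CYP2B6 luciferase reporter stimulated by CITCO; potency is read from the fitted curve at half-maximal effect; nearly all actives have a fitted effect of over 40% in size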
[15] = qHTS assay to identify small molecule agonists of the hypoxia (HIF-1) signaling pathway (AID 1224846; active = well fitted activation curve with a large enough effect in the signal ratio in the repeat runs, not every such curve was filed as active; inconclusive = weak or mixed curves; the % refers to the signal ratio; also: potency is read from the fitted curve at half-maximal effect); details: HRE-bla ME-180 cells, beta-lactamase ratio, 17 h
Method in brief: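 A low-serum medium (0.5% dialyzed FBS) holding 2,000 HRE-bla ME-180 cells per well is preincubated for 5 hrs, dosed with compounds by pintool, and kept a further 17 hrs at 37C, 5% CO2 before CCF4-AM FRET detection of beta-lactamase.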

[16] = qHTS RealTime-Glo MT Cell Viability Assay in HepG2 cells - 16 hour (AID 1224885); details: RealTime-Glo luminescence; also: potency is read from the fitted curve at half-maximal effect; nearly all actives have a fitted effect of over 50% in size
Method in brief: as §1

[17] = qHTS RealTime-Glo MT Cell Viability Assay in HEK293 cells - 8 hour (AID 1224887); details: RealTime-Glo luminescence
Method in brief: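 Viable HEK293 cells reduce a cell-permeant prosubstrate; the product diffuses out and is consumed by NanoLuc in the medium to give light. Compounds went in after a 5 h incubation and plates were read over the treatment course.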

[18] = biological target: Estrogen receptor (Homo sapiens) (UniProt P03372); experiment: qHTS assay to identify small molecule antagonists of the estrogen receptor alpha (ER-alpha) signaling pathway using the BG1 cell line in the presence of 0.1 nM 17-beta-estradiol (AID 1259244); details: VM7Luc4E2 (BG1) ERE-luciferase, antagonist mode, 0.1 nM E2, 22 h
[19] = biological target: Estrogen receptor beta (Homo sapiens) (UniProt Q92731); experiment: qHTS assay to identify small molecule antagonists of the estrogen receptor beta (ER-beta) signaling pathway (AID 1259378; active = well fitted inhibition curve with a large enough effect in the signal ratio in the repeat runs, not every such curve was filed as active; inconclusive = weak or mixed curves, or effect the other way; inactive = no such curve, though single readings can be large or run the other way; the % refers to the signal ratio; also: % is scaled to controls: 0 for no effect and ±100 for the full control effect); details: ER-beta-UAS-bla HEK293T, beta-lactamase FRET ratio, 16 h; at 92.4 µM (top of the series)
Method in brief: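 ER-beta-UAS-bla HEK293T (GripTite) cells in 2% charcoal-stripped FBS medium were preincubated 6 hr at 37C, dosed with compound, then stimulated with 1 nM E2 (final) for 16 hr; beta-lactamase reporter read by B/G FRET fluorescence after 2 hr substrate loading.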

[20] = biological target: Acetylcholinesterase (Homo sapiens) (UniProt P22303); experiment: Acetylcholinesterase (AChE) small molecule antagonists: colormetric cell-based qHTS assay (AID 1347395; calls by dose curve); details: SH-SY5Y cells AChE activity, colorimetric (Ellman)
Method in brief: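 Colorimetric readout: DTNB quantifies thiocholine from acetylthiocholine hydrolysed by endogenous AChE of SH-SY5Y cells (2,000/well, plated overnight). Compound pretreatment 30 min, substrate incubation 90 min, both 37 C.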

[21] = biological target: Cytochrome P450 1A2 (Homo sapiens) (UniProt P05177); experiment: Cytochrome P450 Family 1 Subfamily A Member 2 (CYP1A2) small molecule antagonists: luciferase reporter qHTS assay (AID 1671199); details: P450-Glo CYP1A2 enzyme, luciferin luminescence, 1 h

CC(C)OP(=S)(OC(C)C)SCCNS(=O)(=O)c1ccccc1
inconclusive: activity change, negative = inhibition [1] -40.9% | activation [2] -9.42% | activity change, negative = inhibition [3] -76.9% | Potency [4] 61.6 µM | activation [5] 0.49% | Potency [6] 113 µM | Potency [7] 11 µM | Potency [8] 13.7 µM | activation [9] -16% | Potency [10] 77 µM | Potency [11] 77 µM | Potency [12] 77 µM

O=[N+]([O-])c1ccc([N+](=O)[O-])cc1
inconclusive: Potency [13] 43.6 µM | Potency [14] 77 µM | Potency [15] 61.6 µM | Potency [6] 113 µM | Potency [16] 49 µM | Potency [17] 49 µM | Potency [18] 77 µM | activity, negative = inhibition [19] -38.9% | Potency [11] 6.86 µM | Potency [20] 79.6 µM | Potency [21] 31.7 µM
